Laboratory results from ChEMBL document CHEMBL3352357, “Synthesis and pharmacological evaluation of 5-pyrrolidinylquinoxalines as a novel class of peripherally restricted κ-opioid receptor agonists” (J Med Chem, 2014).

The chains behind the UniProt entries cited, without tags or fusion partners.
UniProt Q60492, whole entry: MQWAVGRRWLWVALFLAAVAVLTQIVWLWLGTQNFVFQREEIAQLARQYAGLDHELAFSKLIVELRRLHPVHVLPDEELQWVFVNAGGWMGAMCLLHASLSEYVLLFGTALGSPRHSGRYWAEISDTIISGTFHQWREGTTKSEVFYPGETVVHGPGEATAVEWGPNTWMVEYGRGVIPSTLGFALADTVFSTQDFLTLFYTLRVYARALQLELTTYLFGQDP
UniProt P41143, whole entry: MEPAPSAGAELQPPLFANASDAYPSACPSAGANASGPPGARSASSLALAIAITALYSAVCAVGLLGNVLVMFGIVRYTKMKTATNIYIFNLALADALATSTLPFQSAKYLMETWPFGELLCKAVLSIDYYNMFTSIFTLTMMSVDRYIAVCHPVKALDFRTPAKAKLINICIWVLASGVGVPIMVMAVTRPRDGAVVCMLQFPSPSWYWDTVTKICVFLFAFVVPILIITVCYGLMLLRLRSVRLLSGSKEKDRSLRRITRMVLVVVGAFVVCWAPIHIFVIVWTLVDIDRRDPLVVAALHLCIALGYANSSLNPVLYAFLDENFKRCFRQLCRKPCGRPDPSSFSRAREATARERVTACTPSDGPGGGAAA

Legend:
[1] = target: Sigma non-opioid intracellular receptor 1 (Cavia porcellus) (UniProt Q60492); test: Displacement of [3H]-(+)-pentazocine from sigma-1 receptor in guinea pig brain cortex membranes at 10 uM; assay type: cell membranes; conditions: Cerebral cortex
[2] = target: Delta-type opioid receptor (Homo sapiens, UniProt P41143); test: Displacement of [3H]-deltorphine from human delta opioid receptor expressed in CHO-K1 cells at 10 uM by scintillation counting analysis; assay type: cell-based

Row | Structure (SMILES) | inhibition [1] [%] | inhibition [2] [%]
1 | O=C(c1ccccc1)N1CCN(C(=O)Cc2ccc(Cl)c(Cl)c2)C2C(N3CCCC3)CCCC21 (centres undefined) | 21 | 15
2 | COC(=O)N1CCN(C(=O)Cc2ccc(Cl)c(Cl)c2)[C@H]2[C@H]1CCC[C@@H]2N1CCCC1 | 0 | –
3 | O=C(c1ccccc1)N1CCN(C(=O)Cc2ccc(Cl)c(Cl)c2)C2C(N3CCC(O)C3)CCCC21 (centres undefined) | 16 | 22
4 | O=C(Cc1ccc(Cl)c(Cl)c1)N1CCN(Cc2cnc[nH]2)C2CCCC(N3CCCC3)C21 (centres undefined) | 15 | 27
5 | CCC(=O)N1CCN(C(=O)Cc2ccc(Cl)c(Cl)c2)C2C(N3CCCC3)CCCC21 (centres undefined) | 0 | 10
